Sequences of proteins named here, by UniProt entry; tags and fusion partners are left off. A change or cut given only in a name is not applied to a line headed by its entry. A line that says so, or that is headed by a name, gives the form on record, which may keep a tag or linker.
UniProt P13569, with tags, fused parts or gaps DEL508-508: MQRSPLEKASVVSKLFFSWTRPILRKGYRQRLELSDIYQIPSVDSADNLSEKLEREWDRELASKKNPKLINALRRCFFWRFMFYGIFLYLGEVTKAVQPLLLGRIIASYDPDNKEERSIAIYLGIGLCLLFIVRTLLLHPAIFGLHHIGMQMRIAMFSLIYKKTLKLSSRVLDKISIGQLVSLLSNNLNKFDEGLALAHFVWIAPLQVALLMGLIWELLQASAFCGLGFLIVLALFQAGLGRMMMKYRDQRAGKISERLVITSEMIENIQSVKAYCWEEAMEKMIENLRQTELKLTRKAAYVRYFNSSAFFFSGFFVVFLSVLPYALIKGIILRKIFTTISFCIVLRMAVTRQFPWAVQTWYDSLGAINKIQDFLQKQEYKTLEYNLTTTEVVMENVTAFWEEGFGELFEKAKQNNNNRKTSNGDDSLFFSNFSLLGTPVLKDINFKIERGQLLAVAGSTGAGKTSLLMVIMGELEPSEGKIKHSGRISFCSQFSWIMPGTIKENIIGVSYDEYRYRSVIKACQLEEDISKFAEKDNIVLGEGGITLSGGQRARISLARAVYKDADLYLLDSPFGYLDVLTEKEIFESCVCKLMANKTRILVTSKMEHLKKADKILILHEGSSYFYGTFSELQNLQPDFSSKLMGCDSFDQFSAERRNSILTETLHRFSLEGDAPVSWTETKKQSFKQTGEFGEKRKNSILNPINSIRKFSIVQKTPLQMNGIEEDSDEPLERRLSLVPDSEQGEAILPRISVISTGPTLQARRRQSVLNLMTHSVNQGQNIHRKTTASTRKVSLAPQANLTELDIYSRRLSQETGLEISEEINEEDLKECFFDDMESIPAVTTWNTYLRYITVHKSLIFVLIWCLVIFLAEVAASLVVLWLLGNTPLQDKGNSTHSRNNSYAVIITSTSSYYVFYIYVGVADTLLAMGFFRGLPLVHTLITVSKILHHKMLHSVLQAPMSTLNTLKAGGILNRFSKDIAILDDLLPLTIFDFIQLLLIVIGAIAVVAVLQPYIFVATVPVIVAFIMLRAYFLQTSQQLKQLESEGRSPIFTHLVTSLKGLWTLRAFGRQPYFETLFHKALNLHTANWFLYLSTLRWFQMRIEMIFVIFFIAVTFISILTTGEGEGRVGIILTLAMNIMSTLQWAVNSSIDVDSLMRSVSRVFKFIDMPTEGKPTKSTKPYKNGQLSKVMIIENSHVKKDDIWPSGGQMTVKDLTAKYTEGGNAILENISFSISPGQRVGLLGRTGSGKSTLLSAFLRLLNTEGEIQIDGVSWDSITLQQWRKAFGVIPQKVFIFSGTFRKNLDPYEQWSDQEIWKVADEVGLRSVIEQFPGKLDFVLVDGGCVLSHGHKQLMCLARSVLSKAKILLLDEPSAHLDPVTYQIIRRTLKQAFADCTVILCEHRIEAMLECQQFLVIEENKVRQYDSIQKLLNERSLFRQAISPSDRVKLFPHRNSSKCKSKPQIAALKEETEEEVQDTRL

In patent publication US20120184583A1, “MODULATORS OF ATP-BINDING CASSETTE TRANSPORTERS” (VERTEX PHARMACEUTICALS INCORPORATED, priority 2003, published 2012):

Assays:
[1] = target: T1, ΔF508-CFTR stably expressed in NIH3T3 cells (Homo sapiens, UniProt P13569, DEL508-508); assay: Membrane potential optical (FRET/VIPR) assay for ΔF508-CFTR potentiation; assay type: cell-based; details: potentiation of forskolin-induced response, n=35
T1 construct: expressed in transfected cells
Description: Membrane potential optical methods for assaying ΔF508-CFTR potentiation properties of compounds.
These voltage sensitive assays are based on the change in fluorescence resonant energy transfer (FRET) between the membrane-soluble, voltage-sensitive dye, DiSBAC2(3), and a fluorescent phospholipid, CC2-DMPE, which is attached to the outer leaflet of the plasma membrane and acts as a FRET donor. Changes in membrane potential (Vm) cause the negatively charged DiSBAC2(3) to redistribute across the plasma membrane and the amount of energy transfer from CC2-DMPE changes accordingly. The changes in fluorescence emission were monitored using VIPR™ II, which is an integrated liquid handler and fluorescent detector designed to conduct cell-based screens in 96- or 384-well microtiter plates.
To identify potentiators of ΔF508-CFTR, a double-addition HTS assay format was developed (FIG. 1A). During the first addition, a Cl^−-free medium with or without test compound was added to each well. After 22 sec, a second addition of Cl^−-free medium containing 2-10 μM forskolin was added to activate ΔF508-CFTR. The extracellular Cl^− concentration following both additions was 28 mM, which promoted Cl^− efflux in response to ΔF508-CFTR activation and the resulting membrane depolarization was optically monitored using the FRET-based voltage-sensor dyes. The double-addition format has several advantages. […]

[2] = target: T2, ΔF508-CFTR expressed in FRT epithelial cells (Homo sapiens, UniProt P13569, DEL508-508); assay: Ussing chamber assay, short-circuit current in FRT epithelia; assay type: cell-based; details: in the presence of 10 μM forskolin; read-out: EC50 of dose-dependent increase in ISC
T2 construct: expressed in transfected cells; host or cells: Fisher rat epithelial (FRT) cells, vector-infected

With `O=c1c(-c2ccc(O)cc2)coc2cc(O)cc(O)c12` [genistein, reference compound] the EC50 [1] was 19.2 ± 1.9 µM and the EC50 [2] was 21.2 ± 0.49 µM.
